Target: T1, Histone-lysine N-methyltransferase EHMT2 (Homo sapiens, UniProt Q96KQ7)
T1 sequence (Q96KQ7 whole entry): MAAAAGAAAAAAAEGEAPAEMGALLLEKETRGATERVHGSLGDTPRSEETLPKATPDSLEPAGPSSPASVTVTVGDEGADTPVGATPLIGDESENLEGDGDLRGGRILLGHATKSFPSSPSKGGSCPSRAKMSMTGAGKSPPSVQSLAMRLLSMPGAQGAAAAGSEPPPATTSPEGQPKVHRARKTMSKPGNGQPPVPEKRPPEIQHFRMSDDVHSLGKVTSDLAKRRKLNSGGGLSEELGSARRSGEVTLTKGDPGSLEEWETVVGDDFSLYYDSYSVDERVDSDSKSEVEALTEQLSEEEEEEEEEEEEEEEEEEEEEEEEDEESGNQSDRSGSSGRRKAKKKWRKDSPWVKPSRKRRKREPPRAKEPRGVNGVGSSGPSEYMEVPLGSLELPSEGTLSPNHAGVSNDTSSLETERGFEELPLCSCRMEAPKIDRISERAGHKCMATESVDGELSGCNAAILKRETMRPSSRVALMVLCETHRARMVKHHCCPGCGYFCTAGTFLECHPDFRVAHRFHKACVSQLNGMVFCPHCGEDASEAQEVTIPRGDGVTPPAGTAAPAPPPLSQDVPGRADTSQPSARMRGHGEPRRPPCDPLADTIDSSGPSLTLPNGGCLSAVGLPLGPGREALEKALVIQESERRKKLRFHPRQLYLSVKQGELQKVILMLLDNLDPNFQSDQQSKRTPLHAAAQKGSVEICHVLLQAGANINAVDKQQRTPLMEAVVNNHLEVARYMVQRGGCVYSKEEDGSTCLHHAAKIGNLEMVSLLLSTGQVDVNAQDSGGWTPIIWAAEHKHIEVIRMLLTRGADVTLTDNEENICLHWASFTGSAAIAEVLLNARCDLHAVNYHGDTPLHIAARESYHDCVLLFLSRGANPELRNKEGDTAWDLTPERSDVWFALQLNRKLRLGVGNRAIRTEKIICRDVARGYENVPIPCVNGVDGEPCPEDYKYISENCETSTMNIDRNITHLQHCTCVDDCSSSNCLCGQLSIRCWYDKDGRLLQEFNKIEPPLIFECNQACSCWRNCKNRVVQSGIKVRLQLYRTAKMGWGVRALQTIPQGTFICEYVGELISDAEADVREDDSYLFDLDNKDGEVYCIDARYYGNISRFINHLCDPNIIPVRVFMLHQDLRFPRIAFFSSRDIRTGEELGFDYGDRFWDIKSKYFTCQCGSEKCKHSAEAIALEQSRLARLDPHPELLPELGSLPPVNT
Experiment: Inhibition of recombinant G9a catalytic SET domain (913 to 1193 residues) (unknown origin) expressed in Escherichia coli BL21 (DE3) codon plus RIL assessed as inhibition of methylation activity using biotin-labeled H3 (1 to 25 residues) as substrate and [3H]-SAM after 2 hrs by scintillation proximity assay

## COc1cc2nc(N3CCCN(C)CC3)nc(NC3CCN(C)CC3)c2cc1OC
  IC50: 9 nM

— ChEMBL document CHEMBL4004823, “Discovery of Potent and Selective Inhibitors for G9a-Like Protein (GLP) Lysine Methyltransferase” (J Med Chem, 2017)
